Source: ChEMBL document CHEMBL1137726, “Novel 4-aryl-pyrido[1,2-c]pyrimidines with dual SSRI and 5-HT1A activity, part 1” (Eur J Med Chem, 2009)

Assays:
[1] = test system: Mus musculus; test: Induction of hypothermia in Albino Swiss mouse assessed as change in body temperature pretreated for 30 mins at 5 mg/kg, ip measured 30 mins after drug dose; format: functional, organism-based; set-up: dose 5 mg/kg
[2] = species on record: Mus musculus; settings: Albino Swiss, 5 mg/kg
[3] = test system: Mus musculus; test: Induction of hypothermia in Albino Swiss mouse assessed as change in body temperature pretreated for 30 mins at 5 mg/kg, ip measured 120 mins after drug dose; format: functional, organism-based; set-up: dose 5 mg/kg
[4] = test system: Mus musculus; test: Induction of hypothermia in Albino Swiss mouse assessed as change in body temperature pretreated for 30 mins at 5 mg/kg, ip measured 90 mins after drug dose; format: functional, organism-based; set-up: dose 5 mg/kg
[5] = species on record: Mus musculus; settings: Albino Swiss, 5 mg/kg; remark: listed apart in the source
[6] = species on record: Mus musculus; settings: Albino Swiss, 0.1 mg/kg
[7] = species on record: Mus musculus; settings: Albino Swiss, 0.1 mg/kg; remark: listed apart in the source
[8] = species on record: Mus musculus; settings: Albino Swiss, 0.1 mg/kg; remark: listed apart in the source
[9] = species on record: Mus musculus; settings: Albino Swiss, 0.1 mg/kg; remark: listed apart in the source

Molecule `Br.CCCN(CCC)C1CCc2cccc(O)c2C1` (centres undefined) has a deltaT [1] of -1.5 °C, a deltaT [2] of -0.2 °C and a deltaT [3] of -0.2 °C. The deltaT [4] was -0.7 °C and the deltaT [5] was -0.1 °C.

`COc1ccccc1N1CCN(CCN(C(=O)C2CCCCC2)c2ccccn2)CC1` showed a deltaT [6] of 0.2 °C, a deltaT [7] of 0.2 °C and a deltaT [8] of 0.1 °C. It also gave a deltaT [9] of 0.1 °C.
